Chains of the proteins cited; added tags and fusions are not shown.
UniProt P31652, whole entry: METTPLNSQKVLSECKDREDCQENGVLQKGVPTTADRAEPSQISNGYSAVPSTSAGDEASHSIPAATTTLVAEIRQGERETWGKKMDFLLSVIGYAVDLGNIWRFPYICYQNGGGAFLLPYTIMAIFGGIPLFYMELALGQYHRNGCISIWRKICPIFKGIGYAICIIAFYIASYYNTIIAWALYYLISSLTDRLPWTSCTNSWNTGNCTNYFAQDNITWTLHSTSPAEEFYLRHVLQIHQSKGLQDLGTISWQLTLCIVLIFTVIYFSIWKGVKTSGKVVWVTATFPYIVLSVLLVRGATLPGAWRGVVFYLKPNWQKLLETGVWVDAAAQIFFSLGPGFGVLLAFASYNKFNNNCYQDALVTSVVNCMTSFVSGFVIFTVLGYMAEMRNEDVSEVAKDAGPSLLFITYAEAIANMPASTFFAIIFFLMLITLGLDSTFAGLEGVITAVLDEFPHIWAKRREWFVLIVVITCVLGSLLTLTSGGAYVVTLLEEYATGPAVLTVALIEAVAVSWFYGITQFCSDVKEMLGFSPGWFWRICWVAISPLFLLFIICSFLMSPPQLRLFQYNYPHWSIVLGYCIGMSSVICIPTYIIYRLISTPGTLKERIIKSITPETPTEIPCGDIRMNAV

In patent US6537522B1, “Neuroprobes for mapping monoamine reuptake sites” (Amersham PLC, priority 1992, dated 2003):

Target: T1, 5-HTT (5-HT transporter) (Rattus norvegicus, UniProt P31652)
T1 construct: or frontoparietal cerebral cortex (for 5-HTT and NET); from tissue; host or cells: rat brain frontoparietal cerebral cortex, crude membrane fraction
Assay: 5-HTT assay, [3H]paroxetine binding, rat frontoparietal cerebral cortex membranes
Settings: radioligand, 20 Ci/mmol
Experimental: N-phthalimidopropyl-β-CIT (see Example 10) was analyzed as follows. Stock solutions (1 mM) of test agents were made in 95% ethanol/DMSO (1/1, v/v) and stored at −5° C. until used by diluting in a large excess of each assay buffer. Agents are tested at six concentrations in duplicate, with a crude membrane fraction of homogenates of rat brain corpus striatum (for DAT assays) in Tris-citrate buffer (pH 7.4) containing Na^+ ([…]) and Mg^2+ (4 mM) or frontoparietal cerebral cortex (for 5-HTT and NET) in 50 mM Tris-HCl buffer (pH 7.4) containing Na^+ ([…]) and K^+ (5 mM) following methods reported by Neumeyer et al., J. Med. Chem. 37, 1558-1561 (1991), the whole of which is incorporated by reference herein.

## [^3H]paroxetine [reference compound]
  Kd: 0.15 nM
